Data taken from PubChem BioAssay AID602282 (Johns Hopkins Ion Channel Center, 2012).
The entries are a selection whose mix differs from that of the whole data set. Some of these compounds have results that are not shown, active ones among them. Activity calls are given as the source filed them.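 Rule for the calls: active = inhibition above 3 SD of the buffer control wells (cut at about 41% in these data); inactive = the rest.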

experiment: inhibition of M3R-evoked calcium signal on retest – cell-based, HEK293 M3R/RGS4 inducible, calcium flux, duplicate, RGS4 activator project, confirmation (AID 602282); conditions: carbachol calcium flux Fluo4, at 10 µM, stronger effect = higher value;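 note: signal is the integrated peak-minus-minimum Fluo4 fluorescence over baseline ratio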

Structure (SMILES) | inhibition
CN(C)C1CCCC1OC(=O)C(O)(c1ccccc1)c1ccccc1 (stereo not drawn) | active: 90.5%
C=CCN1CCN(CCOC(=O)C(O)(c2ccccc2)c2ccccc2)CC1 | active: 92%
CCN(CC)CC(C)C(C)OC(=O)C(O)(c1ccccc1)c1ccccc1 (stereo not drawn) | active: 90.5%
